Screening data: PubChem, Broad Institute
ERp5 block: inhibitors of human ERp5; Q15084; ERp5 insulin aggregation, absorbance 650 nm, 90 min; inhibition, % at 9.99 µM; hit rate 0.05% among 350,000; AID 651711;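 active = mean replicate inhibition above about 25%, with every replicate also reaching it, limit read from the data, passing the limit was not always enough; inconclusive = only one of those two criteria met; inactive = neither criterion met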
SIRT5 inh: inhibitors of human sirtuin-5 desuccinylase; inhibition, % at 15 µM; Purified SirT5, succinyl-peptide AMC, trypsin-coupled fluorescence; AID 652115; hit rate 1.1% among 330,000; in the data active = inhibition above about 15%; inconclusive = no clear call, values can overlap the other calls
FGF22 binding-1: FGF22 (human) thermal shift binding; Q9HCT0; recombinant FGF22 thermal shift, SYPRO orange fluorescence; percent of sucrose octasulfate shift, DMSO zero; activity (Tm shift, normalised), % at 9.99 µM; hit rate 1.5% among 340,000;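 active = mean Tm shift, scaled 0 neutral to 100 positive control, at about 1.3% or above, every replicate too, limit read from the data; inconclusive = no clear call, values can overlap the other calls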
PDI inh: PDI (human) enzyme inhibition; PDI insulin aggregation turbidity, A650, 90 min; inhibition, % at 10 µM; hit rate 0.052% among 350,000; AID 588391;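 active = mean inhibition across replicates of 30% or more, whatever share of single replicates reach that level; inconclusive = mean inhibition below 30% while every single replicate reaches 30%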
UUG fidelity: modulators of yeast start codon fidelity, primary screen, whole organism, S. cerevisiae, single point, plate reader; S. cerevisiae UUG-firefly luciferase reporter, luminescence/redox ratio; activity score, % at 18.7 µM; 0.13% of 350,000 active; AID 602363, 2012;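 active = replicate mean at a twofold rise or more, about +100% in these data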;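 also: firefly luciferase made from a UUG start codon reports start codon fidelity; reporter light over untreated wells divided by growth signal over untreated wells; some hits fall short of that in this replicate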
S100A4 inh HTS: S100A4-myosin IIA interaction inhibition; S100A4/TAMRA-MyoIIA peptide fluorescence polarization; AID 652163; hit rate 0.14% among 360,000; inhibition, % at 10.7 µM; P26447;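 active = mean inhibition of at least 70% across replicates, with every replicate also reaching that level; inconclusive = mean inhibition reaches 70% but some replicates fall short; inactive = mean inhibition below 70%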
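Assay system: human S100A4 monomer with TAMRA-labelled myosin IIA peptide / Buffer or medium: Calcium-containing HEPES buffer, pH 7.2 / Reagent: TAMRA-labelled myosin IIA heavy-chain peptide probe, 5 nM / Compound: one dose per compound / Timing: polarization read 5 min after assay mix addition, stable 5–60 min / Benchmarks: neutral control DMSO, positive control TFP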
FGF22 binding-2: binds human FGF22 shifting its melting temperature. recombinant FGF22 thermal shift, SYPRO orange fluorescence. hit rate 2% among 1,000. shares compounds with FGF22 binding-1. thermal shift activity, °C (ΔTm) at 38 µM. AID 720646;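 active = fitted rise in melting shift crosses a set limit at or below the top valid dose tested; inconclusive = flat fit at mid-level activity, or a poor quality fit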
FGF22 TSA: binds human FGF22 shifting its melting temperature; AID 743017; shares compounds with FGF22 binding-1; Thermal shift assay, SYPRO orange, melting temperature shift; Tm shift (activity), % at 38 µM; 50 tested, under 10 active;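 active = compounds whose fitted dose curve of melting temperature shift rises past a set threshold within the tested doses; inconclusive = flat curve at moderate activity, or poor curve fit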
TSA no protein: shows thermal shift signal without protein, FGF22 counter-screen; shares compounds with FGF22 binding-1; compound-only SYPRO orange thermal shift counter-screen, no protein; AC50, µM (highest dose often 38 µM); hit rate 2% among 1,000;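 active = rising signal whose fitted curve reaches the 0.54 level within the top valid dose, showing a melting point, actives reach about 13 µM in these data; inactive = the rest, including activity in the opposite direction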; note: value is where the raw curve crosses a fixed level and not half-maximal
Numbers stand for hits; - = inactive; ? = inconclusive; . = no result given. Hits are enriched below; roughly 2.2% of the tested compounds scored in any of these assays.

SMILES | ERp5 block | SIRT5 inh | FGF22 binding-1 | PDI inh | UUG fidelity | S100A4 inh HTS | FGF22 binding-2 | TSA no protein | others
Cn1c(C(=O)NCCc2c[nH]c3ccccc23)cc2sccc21 | - | - | 1.6 | - | - | - | - | -
CCS(=O)(=O)N1CC(=O)N2[C@@H](CO)[C@H](c3ccc(-c4ccccc4F)cc3)[C@@H]2C1 | - | - | - | . | . | - | . | .
CCS(=O)(=O)N1CC(=O)N2[C@H](CO)[C@@H](c3ccc(-c4ccccc4F)cc3)[C@@H]2C1 | - | - | 1.3 | . | . | - | - | -
CC(C)n1c(=O)c2ccccc2n1Cc1cn(-c2ccc(Cl)cc2)nn1 | - | - | 2.6 | . | - | - | - | -
O=C(O)Cn1cc(/C=N/NC(=O)c2cc3cc(Br)ccc3o2)c2ccccc21 | - | - | 1.4 | - | . | - | - | -
CC(=O)NC[C@@H]1[C@@H](c2ccc(-c3ccccc3)cc2)[C@H](CO)N1C(=O)C1CC1 | - | - | - | . | - | - | . | .
COc1ccc(NC(=O)Nc2cccc3c2O[C@@H](CN(C)Cc2ccccc2)[C@H](C)CN([C@H](C)CO)C3=O)cc1 | - | - | - | . | - | - | . | .
O=[N+]([O-])c1ccc(Nc2ccc(F)cc2)nc1 | . | . | . | - | . | . | . | .
O=[N+]([O-])c1ccc(Nc2ccccc2)nc1 | - | - | 1.4 | - | . | - | - | -
O=[N+]([O-])c1ccc(Nc2cccc(F)c2)nc1 | ? | - | 3.5 | - | - | - | - | -
O=S(=O)(c1cccc2cccnc12)N1CCN(Cc2ccccc2)CC1 | - | - | 1.4 | - | . | - | - | -
COCC(=O)N1CC2(CN[C@H](CO)c3c2c2ccc(OC)cc2n3C)C1 | . | . | - | . | . | . | . | .
CC(=O)N1[C@@H](CO)[C@@H](c2ccccc2)C12CN(C(=O)c1ccccn1)C2 | - | - | 1.4 | . | . | - | - | -
COCC(=O)N1[C@H](CO)[C@@H](c2ccccc2)C12CN(C(=O)NC1CCCC1)C2 | - | - | . | . | . | - | . | .
COCC(=O)N1CC2(C1)[C@@H](c1ccccc1)[C@@H](CO)N2C(=O)NC1CCCC1 | - | . | 1.4 | . | . | - | - | -
O=C(CC1CC1)N1CC2(C1)[C@H](c1ccccc1)[C@@H](CO)N2C(=O)c1cnccn1 | - | - | . | . | . | - | . | .
CC(=O)N1[C@H](CO)[C@@H](c2ccccc2)C12CN(C(=O)c1ccccn1)C2 | - | - | 1.3 | . | . | - | - | -
O=C(c1ccccn1)N1CC2(C1)[C@H](c1ccccc1)[C@H](CO)N2C(=O)CC1CC1 | - | - | - | . | . | - | . | .
O=C(CC1CC1)N1CC2(C1)[C@H](c1ccccc1)[C@H](CO)N2C(=O)c1cnccn1 | - | - | 1.4 | . | . | - | - | -
O=C(c1ccccn1)N1CC2(C1)[C@@H](c1ccccc1)[C@@H](CO)N2C(=O)C1CC1 | - | - | - | . | . | - | . | .
CO[C@H]1CN(C)C(=O)c2ccc(NC(C)=O)cc2OC[C@@H](C)N(Cc2nccs2)C[C@@H]1C | - | - | - | . | - | - | . | .
Cc1ccc2c(c1)C1CN(C)CCC1N2S(=O)(=O)c1cccc(C(F)(F)F)c1 (stereo not drawn) | - | - | - | - | - | - | . | .
Cc1ccc2c(c1)C1CN(C)CCC1N2S(=O)(=O)c1ccc(C(C)C)cc1 (stereo not drawn) | - | - | 14.3 | - | - | - | - | -
COc1ccc(NC(=O)N(C)C[C@@H]2Oc3ccc(NS(=O)(=O)c4c(C)noc4C)cc3C(=O)N([C@H](C)CO)C[C@H]2C)cc1 | - | - | - | . | - | - | . | .
COc1ccc(NC(=O)N(C)C[C@@H]2OCCCC[C@H](C)Oc3ccc(NC(=O)Nc4c(C)noc4C)cc3C(=O)N([C@@H](C)CO)C[C@@H]2C)cc1 | - | - | - | . | - | - | . | .
SMILES | ERp5 block | SIRT5 inh | FGF22 binding-1 | PDI inh | UUG fidelity | S100A4 inh HTS | FGF22 binding-2 | TSA no protein | others
COCC(=O)NC[C@@H]1[C@@H](c2ccc(C3=CCCC3)cc2)[C@H](CO)N1C(C)=O | . | . | . | . | - | . | . | .
COCC(=O)NC[C@H]1[C@H](c2ccc(C3=CCCC3)cc2)[C@@H](CO)N1C(C)=O | - | - | 1.3 | . | - | - | - | -
O=C(C1CCCC1)N1CCCCN2[C@H](C1)[C@H](c1ccc(C#CC3(O)CCCC3)cc1)[C@@H]2CO | - | - | - | . | - | - | . | .
CC(C)(C)CC(=O)Nc1cccc2c1CCCC2 | . | . | . | - | - | . | . | .
CN1CCC(C)(C(=O)Nc2cccc3c2CCCC3)C1 (stereo not drawn) | - | - | 18.6 | - | - | - | - | -
CSc1ncccc1C(=O)Nc1ccc(S(=O)(=O)N2CCCC2)cc1 | - | - | 1.6 | - | - | - | - | -
CSc1ncccc1C(=O)Nc1cccc(S(=O)(=O)N2CCCCC2)c1 | - | - | - | - | - | - | . | .
O=C(NC1CCCCC1)c1cc(-c2cccc(Cl)c2)on1 | - | - | 3.9 | - | - | - | - | -
CCCC(=O)Nc1ccc2c(c1)C(=O)N(C)[C@H]1CC[C@@H](CC(=O)NCCOC)O[C@@H]1CO2 | . | . | - | . | - | . | . | .
CCOC(=O)c1sc(N2C(=O)C(O)=C(C(=O)c3ccco3)C2c2ccc([N+](=O)[O-])cc2)nc1C (stereo not drawn) | - | - | 1.7 | - | - | - | - | -
COc1ccccc1NC(=O)N[C@H]1CC[C@H](CCn2cc(-c3ccccc3OC)nn2)O[C@H]1CO | - | - | 1.7 | . | - | - | - | -
COc1ccccc1NC(=O)N[C@@H]1CC[C@H](CCn2cc(-c3ccccc3OC)nn2)O[C@@H]1CO | - | - | 1.3 | . | - | - | - | -
COc1ccc(-c2cn(CC[C@H]3CC[C@H](NC(=O)Nc4ccc(F)cc4)[C@@H](CO)O3)nn2)cc1 | - | - | 1.5 | . | . | - | - | -
COc1cccc(C#Cc2ccc([C@H]3[C@@H](CO)N4C(=O)CN(C(C)=O)C[C@H]34)cc2)c1 | - | - | . | . | . | - | . | .
CC(=O)c1ccc(NC(=O)Nc2ccncc2)cc1 | - | - | - | - | - | - | . | .
CC(=O)c1ccc(NC(=O)Nc2cccnc2)cc1 | - | - | 1.4 | - | - | - | - | - | FGF22 TSA=-
CC(=O)Nc1ccc(NC(=O)Nc2ccccc2)cc1 | - | - | 1.8 | - | - | - | - | - | FGF22 TSA=-
Cc1ccc(S(=O)(=O)N2C[C@H](O)COC[C@H]3O[C@@H](CC(=O)N[C@@H]4CCN(Cc5ccccc5)C4)CC[C@@H]32)cc1 | - | - | - | . | - | - | . | .
C[C@@H]1CCCCO[C@@H](CN(C)C)[C@H](C)CN([C@H](C)CO)C(=O)c2cc(NS(=O)(=O)c3cn(C)cn3)ccc2O1 | - | - | - | . | . | - | . | .
